How the values were obtained:
Yoshida sc. sarcoma = assay: Comparison of the ED50 values on Yoshida sc. sarcoma of rats (transplanted solid tumor); assay type: in vivo, rat; conditions: for Relative activity: calculated by comparing the ED50 values
Excerpt: (§1) The following tumor strains were applied:
Rat: Yoshida sc. sarcoma
(§2) The animals received water ad libitum.

[1] = test system: peripheral blood count (granulocytes, lymphocytes); conditions: rat, in vivo
P-388 leukaemia = assay: Tumor inhibiting effect on leukaemia type tumors: P-388; assay type: in vivo, mouse
Excerpt: as §1, §2
Healing=tumor-free survival of 90 days after transplantation

[2] = test system: transplantable mouse and rat tumors; assay: Cytostatic effect / growth inhibition on transplantable mouse and rat tumors (overall statements); conditions: solid tumors; in words
Experimental: Our tests were performed on various transplantable mouse and rat tumors. The following tumor strains were applied:
The tests were always performed on animals of both sexes. At the beginning of the tests the average body weight of mice was 20 to 22 g, whereas that of rats 150 to 180 g. The animals were kept in plastic cages and fed with a standard laboratory animal feed (LATI, Godollo, Hungary). The animals received water ad libitum.
Solid tumors were transplanted by a subcutaneous implantation of tumor chips. Ascites type tumors were transplanted with 10^7 cells received from the ascites, whereas leukaemia type tumors were transplanted with spleen suspension. The treatment of the animals was started 24 hours after transplantation, with the only exception of Harding-Passey melanoma, when treatment was started on the 4th day after transplantation.

Row | Compound | Relative activity (Yoshida sc. sarcoma; i.p.) | Relative activity (Yoshida sc. sarcoma; p.o.) | effect on haematopoiesis (formation of myeloid leukocytes) [1] | relative activity (comparison of ED50 values with reference substances) (Yoshida sc. sarcoma; in words) | Healing (tumor-free survival of 90 days after transplantation) (P-388 leukaemia; 100 mg/kg, 4 × i.p.) | Prol. of life span (P-388 leukaemia; 100 mg/kg, 4 × i.p.) | antileukaemic effect (P-388 leukaemia; in words) | therapeutical indices (LD50/ED50) [2] | haematopoietic activity [1] | selectivity of the haematopoietic effect [1]
1 | CS(=O)(=O)OC[C@@H](O)[C@@H](O)[C@H](O)[C@H](O)COS(C)(=O)=O [1,6-Dimesyl-D-mannitol (Mannogranol), 1,6-dimesyl-D-mannitol] | 0.04 | 0.116 | rather strong and selective action on the formation of myeloid leukocytes | – | – | – | – | – | – | –
2 | CO[C@@H]([C@H](OC)[C@H](O)COS(C)(=O)=O)[C@H](O)COS(C)(=O)=O [compound of formula (I), 1,6-dimesyl-3,4-dimethyl-D-mannitol] | 1 | 1 | – | high superiority | 0/8 | 82% | weak antileukaemic effect | very favourable therapeutical indices | weak | not selective
